For one data set, the system named is CUHN013 PDX. Briefly: PDX efficacy study. The data set is classed as in vivo, Athymic Nude-Foxn1^nu mice. The settings on record: radiation plus SVC112, twice weekly. Put shortly: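 Tumor pieces from 4th-8th-generation PDX implanted on both flanks of 6-10-week-old female mice. Anesthetized mice shielded except flank tumors and irradiated at 3 Gy (115 cGy/min) twice weekly for four weeks. Test compound given IP at 60mg/kg right after irradiation and 6h later. Tumors measured twice weekly. ALDH+CD44high CSC fraction measured by flow cytometry on day 28, then related to tumor treatment/control ratio by linear regression.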

In data set [1] the test system is non-tumor bearing female Balb/C mice. The settings on record: 60mg/kg IP q6h x 2, once per week, 4 weeks.
The conditions of data set [2]: media incubated 24h with cells, then transferred.

Regarding “Meta Br-N-29-H derivative of RA-VII [SVC112]”, the “body weight vs control animals” value in the data set on CUHN013 PDX is reported as “Significant weight loss”. In addition, the histopathology result in data set [1] is given as “no abnormal histopathology was observed”. The stability in media result in data set [2] was “inhibited protein synthesis, proliferation, and suppressed protein levels like fresh drug”.
